Measured values: patent US20230227428A1 (Anaxis Pharma Pty Ltd, priority 2020, published 2023)

Sequences of proteins named here, by UniProt entry; tags and fusion partners are left off. A change or cut given only in a name is not applied to a line headed by its entry.
UniProt Q9Y572: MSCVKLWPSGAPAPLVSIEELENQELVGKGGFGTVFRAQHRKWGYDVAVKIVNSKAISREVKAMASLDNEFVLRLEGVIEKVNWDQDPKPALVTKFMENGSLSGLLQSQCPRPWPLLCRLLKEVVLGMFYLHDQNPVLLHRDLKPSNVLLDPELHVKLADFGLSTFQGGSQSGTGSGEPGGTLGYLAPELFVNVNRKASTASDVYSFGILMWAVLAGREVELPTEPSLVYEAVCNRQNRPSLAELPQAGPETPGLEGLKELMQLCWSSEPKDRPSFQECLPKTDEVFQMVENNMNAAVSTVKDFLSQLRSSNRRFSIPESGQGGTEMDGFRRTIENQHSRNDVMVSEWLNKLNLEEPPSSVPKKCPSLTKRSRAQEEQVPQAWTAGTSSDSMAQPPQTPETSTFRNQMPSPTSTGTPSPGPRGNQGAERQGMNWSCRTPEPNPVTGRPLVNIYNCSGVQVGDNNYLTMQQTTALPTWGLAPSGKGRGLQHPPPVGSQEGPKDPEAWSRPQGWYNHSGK

How the values were obtained:
Conditions in all cases: equilibrium dissociation constant
RIP1 = target: T1, RIP1 (Homo sapiens, UniProt Q13546); test: KINOMEscan binding affinity assay, RIP1
T1 construct: purchased DiscoverX (KINOMEscan service); host or cells: E. coli BL21-derived host (T7 phage) or HEK-293
T1 sequence (Q13546 1-671): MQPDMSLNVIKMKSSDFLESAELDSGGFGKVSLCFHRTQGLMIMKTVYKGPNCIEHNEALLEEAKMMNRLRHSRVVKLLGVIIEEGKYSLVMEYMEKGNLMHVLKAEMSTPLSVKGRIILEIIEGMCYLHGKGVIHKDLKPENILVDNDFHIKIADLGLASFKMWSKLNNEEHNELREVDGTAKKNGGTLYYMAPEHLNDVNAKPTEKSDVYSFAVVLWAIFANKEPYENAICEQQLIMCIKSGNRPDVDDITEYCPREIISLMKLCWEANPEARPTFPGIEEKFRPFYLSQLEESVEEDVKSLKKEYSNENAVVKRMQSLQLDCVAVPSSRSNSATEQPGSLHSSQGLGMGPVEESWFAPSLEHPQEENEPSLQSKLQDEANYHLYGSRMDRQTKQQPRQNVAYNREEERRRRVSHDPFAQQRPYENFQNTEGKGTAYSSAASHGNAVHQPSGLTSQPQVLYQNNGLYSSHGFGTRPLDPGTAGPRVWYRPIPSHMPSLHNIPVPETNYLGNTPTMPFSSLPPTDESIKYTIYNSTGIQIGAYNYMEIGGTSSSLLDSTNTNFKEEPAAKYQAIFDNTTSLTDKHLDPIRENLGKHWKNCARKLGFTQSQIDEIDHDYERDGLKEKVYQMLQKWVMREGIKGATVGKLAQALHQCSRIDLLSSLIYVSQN

RIP3 = target: T2, RIP3 (Homo sapiens, UniProt Q9Y572); test: KINOMEscan binding affinity assay, RIP3
T2 construct: purchased DiscoverX (KINOMEscan service); host or cells: E. coli BL21-derived host (T7 phage) or HEK-293

MLKL (full length) = target: T3, MLKL (full length) (Homo sapiens, UniProt Q8NB16); test: KINOMEscan binding affinity assay, MLKL
T3 construct: purchased DiscoverX (KINOMEscan service); host or cells: E. coli BL21-derived host (T7 phage) or HEK-293
T3 sequence (Q8NB16 1-471): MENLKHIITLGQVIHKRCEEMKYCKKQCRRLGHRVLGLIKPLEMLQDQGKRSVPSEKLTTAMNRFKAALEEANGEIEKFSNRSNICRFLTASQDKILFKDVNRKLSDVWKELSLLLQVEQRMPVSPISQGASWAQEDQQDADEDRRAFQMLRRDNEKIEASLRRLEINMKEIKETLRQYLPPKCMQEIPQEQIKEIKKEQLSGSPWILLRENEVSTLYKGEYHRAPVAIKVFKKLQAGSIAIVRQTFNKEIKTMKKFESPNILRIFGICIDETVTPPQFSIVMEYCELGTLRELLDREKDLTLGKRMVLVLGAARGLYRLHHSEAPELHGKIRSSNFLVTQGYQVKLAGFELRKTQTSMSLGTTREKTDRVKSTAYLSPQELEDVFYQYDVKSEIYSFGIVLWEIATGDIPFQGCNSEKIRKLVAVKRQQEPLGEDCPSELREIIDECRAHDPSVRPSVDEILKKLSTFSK

Compound	Kd (RIP1) [nM]	Kd (RIP3) [nM]	Kd (MLKL (full length)) [nM]
NC(=O)c1c(-c2ccc(Nc3c(NCc4ccccc4)c(=O)c3=O)cc2)n[nH]c1Nc1ccccn1 [Compound 120, 3-(4-((2-(benzylamino)-3,4-dioxocyclobut-1-en-1-yl)amino)phenyl)-5-(pyridin-2-ylamino)-1H-pyrazole-4-carboxamide]	> 1000	> 1000	–
Cc1cc(Nc2[nH]nc(-c3ccc(NC(=O)N4CCc5ccccc5C4)cc3)c2C(N)=O)cc(C)n1 [Compound 85, N-(4-(4-carbamoyl-5-((2,6-dimethylpyridin-4-yl)amino)-1H-pyrazol-3-yl)phenyl)-3,4-dihydroisoquinoline-2(1H)-carboxamide]	> 1000	> 1000	–
NC(=O)c1c(-c2ccc(NC(=O)C(c3ccccc3)c3ccccc3)cc2)n[nH]c1Nc1ccccn1 [Compound 5, 3-(4-(2,2-diphenyl-acetamido)phenyl)-5-(pyridin-2-ylamino)-1H-pyrazole-4-carboxamide]	> 1000	> 1000	–
NC(=O)c1c(-c2ccc(NC(=O)CC3CCCCC3)cc2)n[nH]c1Nc1ccccn1 [Compound 8, 3-(4-(2-cyclohexyl-acetamido)phenyl)-5-(pyridin-2-ylamino)-1H-pyrazole-4-carboxamide]	> 1000	–	100 to 1000
NC(=O)c1c(-c2ccc(NC(=O)N3CCc4cc(C(F)(F)F)ccc4C3)cc2)n[nH]c1Nc1cnccn1 [Compound 100, N-(4-(4-carbamoyl-5-(pyrazin-2-ylamino)-1H-pyrazol-3-yl)phenyl)-6-(trifluoromethyl)-3.4-dihydroisoquinoline-2(1H)-carboxamide]	> 1000	–	< 100
NC(=O)c1c(-c2ccc(NC(=O)N3CCCC(c4ccc(Cl)cc4)C3)cc2)n[nH]c1Nc1cnccn1 (centres unmarked) [Compound 92, N-(4-(4-carbamoyl-5-(pyrazin-2-ylamino)-1H-pyrazol-3-yl)phenyl)-3-(4-chlorophenyl)piperidine-1-carboxamide]	100 to 1000	> 1000	–
COc1cc(Nc2[nH]nc(-c3ccc(NC(=O)N4CCc5ccccc5C4)cc3)c2C(N)=O)ccn1 [Compound 51, N-(4-(4-carbamoyl-5-((2-methoxypyridin-4-yl)amino)-1H-pyrazol-3-yl)phenyl)-3,4-dihydroisoquinoline-2(1H)-carboxamide]	> 1000	–	< 100
COCCOc1cc(Nc2[nH]nc(-c3ccc(NC(=O)CN)cc3)c2C(N)=O)ccn1 [Compound 17, 3-(4-(2-aminoacetamido)phenyl)-5-((2-(2-methoxyethoxy)pyridin-4-yl)amino)-1H-pyrazole-4-carboxamide]	> 1000	> 1000	–
NC(=O)c1c(-c2ccc(NC(=O)N3CCCC(c4ccccc4)C3)cc2)n[nH]c1Nc1cnccn1 (centres unmarked) [Compound 89, N-(4-(4-carbamoyl-5-(pyrazin-2-ylamino)-1H-pyrazol-3-yl)phenyl)-3-phenylpiperidine-1-carboxamide]	< 100	–	< 100
NC(=O)c1c(-c2ccc(NC(=O)N3CCC[C@H](c4ccc(F)cc4)C3)cc2)n[nH]c1Nc1cccc(C(F)(F)F)n1 [Compound 78, (R)-N-(4-(4-carbamoyl-5-((6-(trifluoromethyl)pyridin-2-yl)amino)-1H-pyrazol-3-yl)phenyl)-3-(4-fluorophenyl)piperidine-1-carboxamide]	< 100	> 1000	–
NC(=O)c1c(-c2ccc(NC(=O)Cc3ccccc3)cc2)n[nH]c1Nc1cnccn1 [Compound 29, 3-(4-(2-phenylacetamido)phenyl)-5-(pyrazin-2-ylamino)-1H-pyrazole-4-carboxamide]	> 1000	> 1000	–
NC(=O)c1c(-c2ccc(NC(=O)Cc3ccncc3)cc2)n[nH]c1Nc1ccccn1 [Compound 12, 5-(pyridin-2-ylamino)-3-(4-(pyridin-4-(2-yl)acetamido)phenyl)-1H-pyrazole-4-carboxamide]	> 1000	> 1000	–
Cc1cc(Nc2[nH]nc(-c3ccc(NC(=O)N4CCC(c5ccccc5)C4)cc3)c2C(N)=O)cc(C)n1 (centres unmarked) [Compound 84, 5-((2,6-dimethylpyridin-4-yl)amino)-3-(4-(3-phenylpyrrolidine-1-carboxamido)phenyl)-1H-pyrazole-4-carboxamide]	> 1000	> 1000	–
NC(=O)c1c(-c2ccc(Nc3c(Nc4ccccc4)c(=O)c3=O)cc2)n[nH]c1Nc1ccccn1 [Compound 116, 3-(4-((3,4-dioxo-2-(phenylamino)cyclobut-1-en-1-yl)amino)phenyl)-5-(pyridin-2-ylamino)-1H-pyrazole-4-carboxamide]	> 1000	> 1000	–
NC(=O)c1c(-c2ccc(NC(=O)Cc3ccccn3)cc2)n[nH]c1Nc1ccccn1 [Compound 10, 3-(4-(2-(pyridin-2-yl)acetamido)phenyl)-5-(pyridin-2-ylamino)-1H-pyrazole-4-carboxamide]	> 1000	> 1000	–
COCCOc1cc(Nc2[nH]nc(-c3ccc(NC(=O)CN(C)C)cc3)c2C(N)=O)ccn1 [Compound 19, 3-(4-(2-(dimethylamino)acetamido)phenyl)-5-((2-(2-methoxyethoxy)pyridin-4-yl)amino)-1H-pyrazole-4-carboxamide]	> 1000	> 1000	–
NC(=O)c1c(-c2ccc(NC(=O)N3CCc4cc(C(F)(F)F)ccc4C3)cc2)n[nH]c1Nc1cccc(C(F)(F)F)n1 [Compound 76, N-(4-(4-carbamoyl-5-((6-(trifluoromethyl)pyridin-2-yl)amino)-1H-pyrazol-3-yl)phenyl)-6-(trifluoromethyl)-3,4-dihydroiso-quinoline-2(1H)-carboxamide]	> 1000	> 1000	–

Now from value to compound:

Kd (RIP1) [nM]	Kd (RIP3) [nM]	Kd (MLKL (full length)) [nM]	Compound
100 to 1000	> 1000	–	COc1cc(Nc2[nH]nc(-c3ccc(NC(=O)NCCc4ccccc4)cc3)c2C(N)=O)ccn1 [Compound 66, 5-[(2-methoxypyridin-4-yl)amino]-3-(4-{[(2-phenylethyl)carbamoyl]amino}phenyl)-1H-pyrazole-4-carboxamide]
100 to 1000	> 1000	–	COc1cc(Nc2[nH]nc(-c3ccc(NC(=O)N4CCC[C@@H]4c4ccccc4)cc3)c2C(N)=O)ccn1 [Compound 104, (R)-5-((2-methoxypyridin-4-yl)amino)-3-(4-(2-phenyl-pyrrolidine-1-carboxamido)phenyl)-1H-pyrazole-4-carboxamide]
> 1000	> 1000	–	COc1cc(Nc2[nH]nc(-c3ccc(NC(=O)N4CC[C@H](c5ccccc5)C4)cc3)c2C(N)=O)ccn1 [Compound 63, (R)-5-((2-methoxypyridin-4-yl)amino)-3-(4-(3-phenylpyrrolidine-1-carboxamido)phenyl)-1H-pyrazole-4-carboxamide]
> 1000	> 1000	–	COc1cc(Nc2[nH]nc(-c3ccc(NC(=O)N4CCC(c5ccccc5)C4)cc3)c2C(N)=O)ccn1 (centres unmarked) [Compound 50, 5-((2-methoxypyridin-4-yl)amino)-3-(4-(3-phenylpyrrolidine-1-carboxamido)phenyl)-1H-pyrazole-4-carboxamide]
< 100	–	< 100	COc1cc(Nc2[nH]nc(-c3ccc(NC(=O)N4CCC[C@H](c5ccccc5)C4)cc3)c2C(N)=O)ccn1 [Compound 61, (R)-N-(4-(4-carbamoyl-5-((2-methoxypyridin-4-yl)amino)-1H-pyrazol-3-yl)phenyl)-3-phenylpiperidine-1-carboxamide]
> 1000	> 1000	–	COc1cc(Nc2[nH]nc(-c3ccc(NC(=O)N4CCCc5ccccc54)cc3)c2C(N)=O)ccn1 [Compound 54, N-(4-(4-carbamoyl-5-((2-methoxypyridin-4-yl)amino)-1H-pyrazol-3-yl)phenyl)-3,4-dihydroquinoline-1(2H)-carboxamide]
> 1000	> 1000	–	COc1cc(Nc2[nH]nc(-c3ccc(NC(=O)N(C)c4ccccc4)cc3)c2C(N)=O)ccn1 [Compound 57, 5-((2-methoxypyridin-4-yl)amino)-3-(4-(3-methyl-3-phenylureido)phenyl)-1H-pyrazole-4-carboxamide]
> 1000	> 1000	–	COc1cc(Nc2[nH]nc(-c3ccc(NC(=O)N4CCC(C)(c5ccccc5)C4)cc3)c2C(N)=O)ccn1 (centres unmarked) [Compound 72, 5-((2-methoxypyridin-4-yl)amino)-3-(4-(3-methyl-3-phenylpyrrolidine-1-carboxamido)phenyl)-1H-pyrazole-4-carboxamide]
